From ChEMBL document CHEMBL1129517, “Pyrazolo[4,3-e]-1,2,4-triazolo[1,5-c]pyrimidine derivatives: potent and selective A(2A) adenosine antagonists” (J Med Chem, 1996)

Test system: Adenosine receptor A2a (Oryctolagus cuniculus)

SMILES | ED50 [nM]
Nc1nc2n[nH]cc2c2nc(-c3ccco3)nn12 | 100
Nc1nc2c(cnn2CCOCc2ccccc2)c2nc(-c3ccco3)nn12 | > 10000
Nc1nc2nn(CCc3ccccc3)cc2c2nc(-c3ccco3)nn12 | 200
Nc1nc2c(cnn2CCCc2ccccc2)c2nc(-c3ccco3)nn12 [SCH-63390] | 20
Nc1nc2c(cnn2CCCCc2ccccc2)c2nc(-c3ccco3)nn12 | > 1000
Cn1ncc2c1nc(N)n1nc(-c3ccco3)nc21 | 300
CCCCn1cc2c(nc(N)n3nc(-c4ccco4)nc23)n1 | 40
OCCn1ncc2c1nc(NCc1ccccc1)n1nc(-c3ccco3)nc21 | > 10000
CC(C)(C)n1ncc2c1nc(N)n1nc(-c3ccco3)nc21 | > 10000
CCC(C)Cn1ncc2c1nc(N)n1nc(-c3ccco3)nc21 (stereo not given) | 300
